We go through one compound from BindingDB's records for doi:10.1016/j.bmcl.2010.12.109 (Ono Pharmaceutical, 2011).

Where a name gives a salt, the structure may show the parent alone.

The assay can be described thus: Antagonist activity at human CCR5 expressed in HOS cells assessed as inhibition of cell fusion with HIV gp120 expressing HEK293 cells by LTR luciferase assay.

A word on the IC50: it is the concentration that inhibits the measured activity by half. Consider `CCCCN1C(=O)[C@H](CC2CCCCC2)NC(=O)C12CCN(Cc1ccc(Oc3ccc(C(=O)O)cc3)cc1)CC2` [4-(4-{[(3S)-1-Butyl-3-(cyclohexylmethyl)-2,5-dioxo-1,4,9-triazaspiro[5.5]undec-9-yl]methyl}phenoxy)benzoic acid hydrochloride], for which the IC50 came to 87.1 nM.
